These are literature values, as cited in patent US20180373846A1, “METHODS AND SYSTEMS FOR ORGANIC SOLUTE SAMPLING OF AQUEOUS AND HETEROGENEOUS ENVIRONMENTS” (University of Maryland, Baltimore, priority 2014, published 2018).

For this data set, the target named is β2AR (Homo sapiens, UniProt P07550). Conditions: experimental, from cited references.

Regarding `CNC[C@H](O)c1ccc(O)c(O)c1` [Adrenaline(epinephrine)], the ΔGbind is given as −8.60.
